Publication PMC12648092 (Acta Pharmaceutica Sinica. B, 2025)

Chains of the proteins cited; added tags and fusions are not shown. Residues count along the entry.
UniProt P22303, 32-617 isoform P22303-2 limits assumed: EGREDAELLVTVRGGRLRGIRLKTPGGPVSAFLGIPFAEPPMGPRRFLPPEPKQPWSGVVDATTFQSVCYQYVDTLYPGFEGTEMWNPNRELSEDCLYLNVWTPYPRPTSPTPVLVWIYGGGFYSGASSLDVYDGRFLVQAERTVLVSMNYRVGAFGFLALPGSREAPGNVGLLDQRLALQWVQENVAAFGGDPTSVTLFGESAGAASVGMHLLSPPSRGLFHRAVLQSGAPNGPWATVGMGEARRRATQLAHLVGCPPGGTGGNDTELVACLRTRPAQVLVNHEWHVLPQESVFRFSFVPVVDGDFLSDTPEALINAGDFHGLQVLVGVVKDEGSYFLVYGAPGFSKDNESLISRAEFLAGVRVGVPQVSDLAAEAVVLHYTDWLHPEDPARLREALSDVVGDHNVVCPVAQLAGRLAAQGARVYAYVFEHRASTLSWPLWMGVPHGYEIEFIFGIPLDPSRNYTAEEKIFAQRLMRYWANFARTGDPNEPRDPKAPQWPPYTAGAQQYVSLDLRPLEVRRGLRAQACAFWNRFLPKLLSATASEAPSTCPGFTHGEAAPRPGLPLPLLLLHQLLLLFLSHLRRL

Biological target: AChE (Homo sapiens, UniProt P22303)
Assay: ROCMCBs

`COc1ccc2cc3[n+](cc2c1OC)CCc1cc2c(cc1-3)OCO2` [berberine] gave an IC50 of 4.7 µM.
